This assay concerns Met-1 tumors. Conditions: ten day course, ~6 mg doxorubicin/kg iv; free doxorubicin versus saline, liposomes versus free doxorubicin.

As for `COc1cccc2c1C(=O)c1c(O)c3c(c(O)c1C2=O)C[C@@](O)(C(=O)CO)C[C@@H]3O[C@H]1C[C@H](N)[C@H](O)[C@H](C)O1.Cl` [free doxorubicin, Doxorubicin hydrochloride], the tumor growth suppression result is “showed a therapeutic effect”.

The values are drawn from patent publication US9844656B2, “Localization of agents at a target site with a composition and an energy source” (The Regents of the University of California, priority 2010, dated 2017).
